Max increase data for two molecules are collected here from ChEMBL document CHEMBL1124876, “Organic phosphorus compounds. 5. (4-Benzothiazol-2-ylbenzyl)amidophosphonate as potent calcium antagonistic vasodilators” (J Med Chem, 1990).

The test system of assay [1] is Canis familiaris. In words: Coronary vasodilatory activity as increase in coronary flow was determined in dogs after 0.1 mg/kg i.v. administration of the compound; (SE +/- 5.1). Conditions: route intravenous.
Assay [2] relates to Canis familiaris. In words: Coronary vasodilatory activity as increase in coronary flow was determined in dogs after 0.1 mg/kg i.v. administration of the compound; (SE +/- 10.8). Conditions: route intravenous.

On to `CCOP(=O)(Cc1ccc(-c2nc3ccccc3s2)cc1)N1CCNC1=O` (configuration not stated), for which, in assay [1], the Max increase worked out at 17.3%.
As for `CCOP(=O)(Cc1ccc(-c2nc3ccccc3s2)cc1)N1CCN(C)C1=O` (configuration not stated), the Max increase in assay [2] turned out to be 47.7%.
